Experimental data published in patent publication US20240209028A1, “CNP COMPOUNDS” (priority 2022, published 2024).

Target: T1, human natriuretic peptide receptor 2 (hNPR2) (Homo sapiens, UniProt P20594)
T1 construct: expressed in transfected cells; host or cells: HEK293 (ATCC CRL-1573), clone 35, co-transfected with pGloSensor-42F
T1 sequence (P20594 23-1047): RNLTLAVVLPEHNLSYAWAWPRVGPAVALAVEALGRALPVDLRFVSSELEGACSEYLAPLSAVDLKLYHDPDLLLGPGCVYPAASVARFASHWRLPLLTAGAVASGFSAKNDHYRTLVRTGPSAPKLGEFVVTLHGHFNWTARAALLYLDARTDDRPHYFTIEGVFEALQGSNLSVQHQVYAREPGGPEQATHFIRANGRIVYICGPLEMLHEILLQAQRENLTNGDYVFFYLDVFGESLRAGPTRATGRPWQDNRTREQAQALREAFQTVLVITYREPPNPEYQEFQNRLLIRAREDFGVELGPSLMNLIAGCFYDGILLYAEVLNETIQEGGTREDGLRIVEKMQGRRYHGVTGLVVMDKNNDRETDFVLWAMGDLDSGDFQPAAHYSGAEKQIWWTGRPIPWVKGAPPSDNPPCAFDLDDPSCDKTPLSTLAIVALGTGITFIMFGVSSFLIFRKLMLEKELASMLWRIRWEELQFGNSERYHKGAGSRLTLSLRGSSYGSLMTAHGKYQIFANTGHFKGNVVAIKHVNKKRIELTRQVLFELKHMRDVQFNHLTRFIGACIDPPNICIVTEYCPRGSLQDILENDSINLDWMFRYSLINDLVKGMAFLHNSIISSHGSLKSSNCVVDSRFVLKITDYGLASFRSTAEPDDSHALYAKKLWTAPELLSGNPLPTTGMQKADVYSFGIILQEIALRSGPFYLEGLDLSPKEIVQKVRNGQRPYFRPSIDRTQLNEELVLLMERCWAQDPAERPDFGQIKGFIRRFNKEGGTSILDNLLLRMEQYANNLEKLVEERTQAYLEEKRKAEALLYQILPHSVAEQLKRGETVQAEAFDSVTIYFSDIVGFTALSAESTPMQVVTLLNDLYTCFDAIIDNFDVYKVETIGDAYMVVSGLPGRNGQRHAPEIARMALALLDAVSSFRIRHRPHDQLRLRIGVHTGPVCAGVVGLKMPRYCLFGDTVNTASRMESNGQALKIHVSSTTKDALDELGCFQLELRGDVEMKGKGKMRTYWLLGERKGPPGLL
Experiment: In vitro hNPR2 activity assay (cGMP GloSensor reporter, HEK293)
Type: cell-based
Conditions: potency relative to CNP22 (0065)
Description: To evaluate the in vitro activity of CNP22 (0065; Chem. 1) and CNP compounds of the invention, they were tested for their ability to induce production of cyclic guanosine monophosphate (cGMP) in reporter cells expressing the human natriuretic peptide receptor 2 (hNPR2).
Cell culture: To produce the reporter cell line, HEK293 (ATCC® CRL-1573™) cells were stably transfected with the pGloSensor-42F reporter plasmid (GloSensor cGMP reporter—luciferase, Promega) and an expression plasmid encoding the hNPR2 receptor. A single cell clone was isolated for the reporter cell line. When reporter cells are exposed to an hNPR2 activating compound, hNPR2 cause production of cGMP. […] Active GloSensor luciferase is able to convert luciferin to oxyluciferin, a process that produces bioluminescence. Upon cell lysis and supply of luciferase substrate, luciferase activity can be quantified by detection of luminescence. Therefore, addition of an hNPR2 activating compound and subsequent addition of detection reagent to reporter cells causes generation of luminescence in a dose dependent manner. […] This measure, also referred to as in vitro potency, is reported for all compounds tested. In all the in vitro activity experiments, CNP22 was used as a positive in-plate control for hNPR2 activation. To reduce inter-assay variation, we also report the potency of each compound relative to the potency of the CNP22 control on each plate.
Procedure: HEK293-hNPR2/GloSensor clone 35 cells were continuously cultured in selection medium (DMEM containing 10% FCS, 1% P/S, 200 μg/mL G418 and 100 μg/mL hygromycin). To perform the assay, cells were detached with TrypLE Express (Gibco #12604013), put through a 70 μm cell strainer, counted and seeded in 30 μL/well assay medium (DMEM without phenol red and with 1% P/S) at 10,000 cells/well in white 384-well plates (Perkin Elmer #6007680) overnight. The following day, test compounds were serial diluted in dilution medium (DMEM without phenol red containing 1% OVA (Sigma #A5505 lot 04M7001V), 0.01% Tween20 (Roche #33766700) and 1% P/S) and 10 μL/well of diluted test compounds were subsequently added to the cells. For each compound, ten different concentrations in the range 0.25 μM-10 μM were tested. After 30 min of incubation at 37° C. and 5% CO2, 40 μL/well Bright-Glo detection reagent (Promega #E2650) was added. […] To determine the in vitro potency or EC50 of each test compound, a four parameter logistic regression was done on the raw data for each test compound using the Python package SciPy optimize. The average EC50 values are listed as “hNPR2 0% HSA. [EC50 (nM)]” in Table 2. A relative potency was calculated by the following expression: EC50 (CNP22 in-plate control)/EC50 (test compound)*100, shown as “hNPR2 0% HSA. [EC50% rel CNP]” in Table 2. A minimum of two replicates was measured for each test compound.

In the case of CCCC[C@@H]1NC(=O)[C@H](CO)NC(=O)CNC(=O)[C@H]([C@@H](C)CC)NC(=O)[C@H](CCCNC(=N)N)NC(=O)[C@H](CC(=O)O)NC(=O)[C@H](CC(C)C)NC(=O)[C@H](CCCCN)NC(=O)[C@H](CC(C)C)NC(=O)CNC(=O)[C@H](Cc2ccccc2)NC(=O)[C@@H](NC(=O)CNC(=O)[C@H](CCCCN)NC(=O)[C@H](CO)NC(=O)[C@H](CC(C)C)NC(=O)CNC(=O)[C@H](CCCCN)NC(=O)[C@H](CCCCN)NC(=O)[C@H](CCC(N)=O)NC(=O)[C@H](C)NC(=O)CNC(=O)[C@H](CCCCN)NC(=O)[C@H](Cc2ccc(O)cc2)NC(=O)[C@H](CCCCN)NC(=O)[C@H](CCCNC(=N)N)NC(=O)[C@H](C)NC(=O)[C@H](CCC(N)=O)NC(=O)COCCOCCNC(=O)COCCOCCNC(=O)CC[C@H](NC(=O)CCCCCCCCCCCCCCCCC(=O)O)C(=O)O)CSSC[C@@H](C(=O)O)NC(=O)CNC(=O)[C@H](CC(C)C)NC(=O)CNC(=O)[C@H](CO)NC1=O [compound 0312], the “hNPR2 0% HSA. [EC50% rel CNP]” value is reported as 80.0%.
